Sequences of proteins named here, by UniProt entry; tags and fusion partners are left off.
UniProt P34914, whole entry: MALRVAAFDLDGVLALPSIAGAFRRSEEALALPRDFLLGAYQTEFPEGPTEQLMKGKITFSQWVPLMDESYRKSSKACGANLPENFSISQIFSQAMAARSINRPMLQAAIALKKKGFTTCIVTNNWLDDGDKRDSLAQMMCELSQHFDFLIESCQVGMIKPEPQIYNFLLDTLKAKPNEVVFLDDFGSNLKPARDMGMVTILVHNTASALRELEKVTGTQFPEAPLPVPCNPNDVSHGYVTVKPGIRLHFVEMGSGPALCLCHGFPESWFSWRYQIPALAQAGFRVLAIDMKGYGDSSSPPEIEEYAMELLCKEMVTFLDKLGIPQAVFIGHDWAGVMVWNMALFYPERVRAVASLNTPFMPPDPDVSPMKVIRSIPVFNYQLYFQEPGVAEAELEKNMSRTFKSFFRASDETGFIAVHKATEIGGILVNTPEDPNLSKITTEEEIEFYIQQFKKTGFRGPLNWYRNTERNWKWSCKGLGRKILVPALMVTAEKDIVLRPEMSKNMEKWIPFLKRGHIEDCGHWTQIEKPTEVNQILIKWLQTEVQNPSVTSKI

In patent publication US8476043B2:

Biological target: mouse sEH (Mus musculus, UniProt P34914)
Test: sEH inhibition, spectrometric assay with racemic 4-nitrophenyl-trans-2,3-epoxy-3-phenylpropyl carbonate as substrate
Assay type: biochemical
Details: Table 12, amino acid derivatives of 632-Tyr, unpurified reaction solutions

- IC50 (read-out: Mouse sEH IC50): 0.5 µM
- IC90 (read-out: Mouse sEH IC90): 30 µM
SMILES: O=C(CCCNC(=O)NC1CCCCC1)NC(Cc1ccc(O)cc1)C(=O)O (centres unmarked) [Compound 625-Tyr, 2-[4-(3-Cyclohexyl-ureido)-butyrylamino]-3-(4-hydroxy-phenyl)-propionic acid]
